This is a selection; strong and weak results do not stand in their true shares. Results filed as inconclusive are left out. Calls of active or inactive are those of the source. The calls were made as follows: active = hit-call score of the fitted dose curve at least 0.9, where 1 is the maximum; inconclusive = response in the unintended direction; inactive = score below 0.9.
Target: Retinoic acid receptor RXR-alpha (Homo sapiens) (UniProt P19793)
Experiment: ATG_RXRa_TRANS: Attagene TRANS-FACTORIAL HepG2 Assay for human Retinoid X Receptor alpha (RXRa) (AID 2283012)
Method: ATG_TRANS is a cell-based, multiplexed-readout assay that uses HepG2, a human liver cell line, with measurements taken at 24 hours after chemical dosing in a 24-well plate.ATG_RXRa_TRANS is one of 30 assay component(s) measured or calculated from the ATG_TRANS assay. It is designed to make measurements of mRNA induction, a form of inducible reporter, as detected with fluorescence intensity signals by Reverse transcription polymerase chain reaction (RT-PCR) and Capillary electrophoresis technology.Data from the assay component ATG_RXRa_TRANS was analyzed into 1 assay endpoint. This assay endpoint, ATG_RXRa_TRANS, was analyzed in the positive analysis fitting direction relative to DMSO as the negative control and baseline of activity. Using a type of inducible reporter, measures of mRNA for gain-of-signal activity can be used to understand the reporter gene at the transcription factor-level as they relate to the gene RXRA. Furthermore, this assay endpoint can be referred to as a primary readout, because this assay has produced multiple assay endpoints where this one serves a reporter gene function. To generalize the intended target to other relatable targets, this assay endpoint is annotated to the nuclear receptor intended target family, where the subfamily is non-steroidal.
Human liver HepG2 cells are transiently transfected with multiple reporter transcription units (MRTUs) in 6-well plates using FuGene 6 reagent (Roche; 3 ml FuGene/1 mg DNA). The MRTU constructs are regulated by a cis-regulating element (promoter). […] A major difference between the CIS and TRANS system is that in CIS activities of endogenous TFs are measured, whereas the TRANS assay evaluates changes in activities of exogenous, chimeric NR-Gal4 proteins. […] At the end of 24 hour incubation, total RNA was isolated using TriZol reagent (Invitrogen). The isolated RNA is then reverse-transcribed using oligo(dT) primer and Mo-MLV reverse transcriptase (Invitrogen) with DNAse I (Ambion) treatment for 30 min. The one-tenth of the produced cDNA was amplified by PCR using Taq DNA polymerase (Invitrogen) and two reporter sequence-specific primers. The PCR products were fluorescently labeled by primer extension with 6-arboxyfluorescein (6-FAM) 5'-labeled reporter sequence-specific primer (2 min at 95 C, 20 s at 68 C and 10 min at 72 C) and these products were digested with 5U of HpaI (New England Biolabs) for 2h at 37 C. The fragments were purified using Qiaquick PCR columns (Qiagen), analyzed on an ABI 3130xL genetic analyzer (Applied Biosystems) with peak positions identified by using a set of X-rhodamine (ROX)-labeled MapMarker1000 molecular weight standards (BioVentures). The raw capillary electrophoresis data was processed using Attagraph software (Attagene).

Protein sequences, listed by entry. Tags and fused reporters are not part of them. Lines headed by an entry give the natural chain unless they say otherwise; changes in a name come on top.
UniProt P19793: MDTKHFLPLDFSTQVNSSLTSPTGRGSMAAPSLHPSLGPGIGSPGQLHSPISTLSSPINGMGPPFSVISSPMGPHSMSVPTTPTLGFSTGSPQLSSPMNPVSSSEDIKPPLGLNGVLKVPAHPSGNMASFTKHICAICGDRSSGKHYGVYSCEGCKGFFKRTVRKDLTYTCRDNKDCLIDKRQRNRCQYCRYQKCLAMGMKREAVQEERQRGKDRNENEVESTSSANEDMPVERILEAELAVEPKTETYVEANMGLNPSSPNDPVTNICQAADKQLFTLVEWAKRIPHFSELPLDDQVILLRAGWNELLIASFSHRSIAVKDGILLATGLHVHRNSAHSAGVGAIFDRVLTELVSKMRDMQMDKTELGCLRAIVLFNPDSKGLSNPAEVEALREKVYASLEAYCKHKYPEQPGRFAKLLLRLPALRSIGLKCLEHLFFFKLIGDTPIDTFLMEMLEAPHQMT

| Compound | outcome |
| --- | --- |
| CCCCOP(OCCCC)OCCCC | inactive |
| CC(C)CCCCCCCOP(OCCCCCCCC(C)C)Oc1ccccc1 | inactive |
| O=C(Cl)Oc1ccccc1 | inactive |
| ClP(Cl)c1ccccc1 | inactive |
| N#CSc1ccc([N+](=O)[O-])cc1[N+](=O)[O-] | inactive |
| O=[P+](Oc1ccccc1)Oc1ccccc1 | inactive |
| O=C1C2CC=CCC2C(=O)N1SC(Cl)(Cl)C(Cl)Cl (stereo unspecified) | inactive |
| O=P(Cl)(Oc1ccccc1)Oc1ccccc1 | inactive |
| CCCCO[P+](=O)OCCCC | inactive |
| O=[As]c1ccccc1 (stereo unspecified) | inactive |
| O=C(Cl)OCCOC(=O)Cl | inactive |
